The target of this experiment is Multidrug resistance protein 4 (MRP4/ABCC4) (Homo sapiens, UniProt O15439). Description: biochemical.

Sequences of proteins named here, by UniProt entry; tags and fusion partners are left off. A change or cut given only in a name is not applied to a line headed by its entry.
UniProt O15439: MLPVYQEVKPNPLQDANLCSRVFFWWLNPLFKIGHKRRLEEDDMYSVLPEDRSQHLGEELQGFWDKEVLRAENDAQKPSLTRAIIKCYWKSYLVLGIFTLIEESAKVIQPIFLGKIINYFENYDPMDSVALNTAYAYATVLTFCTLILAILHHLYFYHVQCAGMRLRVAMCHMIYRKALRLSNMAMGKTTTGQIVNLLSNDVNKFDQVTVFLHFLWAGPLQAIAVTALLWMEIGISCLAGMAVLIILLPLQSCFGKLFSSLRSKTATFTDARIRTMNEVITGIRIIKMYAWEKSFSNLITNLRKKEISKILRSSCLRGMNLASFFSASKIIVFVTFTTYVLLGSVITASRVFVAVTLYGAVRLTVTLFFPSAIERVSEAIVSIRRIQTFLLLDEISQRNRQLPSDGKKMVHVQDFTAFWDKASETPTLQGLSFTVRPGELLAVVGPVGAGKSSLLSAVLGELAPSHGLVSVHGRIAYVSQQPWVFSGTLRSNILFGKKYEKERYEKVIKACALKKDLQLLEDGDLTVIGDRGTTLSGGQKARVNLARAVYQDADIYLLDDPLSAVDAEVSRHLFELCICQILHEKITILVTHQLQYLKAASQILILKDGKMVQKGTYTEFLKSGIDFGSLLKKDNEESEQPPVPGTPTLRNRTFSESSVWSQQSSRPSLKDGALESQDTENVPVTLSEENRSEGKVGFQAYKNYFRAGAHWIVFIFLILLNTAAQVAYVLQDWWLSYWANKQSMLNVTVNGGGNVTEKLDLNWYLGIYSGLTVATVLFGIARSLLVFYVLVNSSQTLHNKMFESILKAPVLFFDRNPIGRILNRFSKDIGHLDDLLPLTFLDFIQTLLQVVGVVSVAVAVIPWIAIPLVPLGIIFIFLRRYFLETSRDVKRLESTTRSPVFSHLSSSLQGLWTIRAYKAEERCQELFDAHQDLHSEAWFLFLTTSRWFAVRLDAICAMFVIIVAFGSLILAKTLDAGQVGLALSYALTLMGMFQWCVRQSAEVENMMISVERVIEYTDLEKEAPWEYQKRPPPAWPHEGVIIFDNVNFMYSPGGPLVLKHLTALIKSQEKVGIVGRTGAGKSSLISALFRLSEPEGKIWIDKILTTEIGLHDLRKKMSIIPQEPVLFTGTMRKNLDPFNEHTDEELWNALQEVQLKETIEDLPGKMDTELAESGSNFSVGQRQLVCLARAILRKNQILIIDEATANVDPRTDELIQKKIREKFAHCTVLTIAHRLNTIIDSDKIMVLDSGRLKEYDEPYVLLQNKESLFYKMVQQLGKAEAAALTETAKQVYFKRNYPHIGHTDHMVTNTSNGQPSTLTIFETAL

Molecules are shown by their SMILES.

Broadly, the IC50 is the concentration at which inhibition is half-maximal. High values mean lower potency, low ones higher potency.

Compound `CN(C)C(=O)CCSC(SCCC(=O)O)c1cccc(/C=C/c2ccc3ccc(Cl)cc3n2)c1` (stereo not shown) [MK571] displayed an IC50 of 390 nM.

The values are drawn from article PMC6873218, “Functional Expression of Multidrug Resistance Protein 4 MRP4/ABCC4” (Slas Discovery, 2019).
